## Yeast mating assay B: variants of the scFv Ab-14

From the AlphaSeq antibody data of Li et al. 2023 (doi:10.1038/s41467-023-39022-2), copy in the FLAb collection.

Binding partner: SARS-CoV-2 spike HR2 peptide, sequence PDVDLGDISGINAS.

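The parent was found by panning a naive human phage display library on the peptide. This is the validation round: designs drawn from the data on random variants, tested in the same kind of assay. Their group label is 14H_GP_HC (GP: Gaussian process model; HC: hill climbing; a sequence that several methods proposed may carry one label only). The assay is AlphaSeq: two haploid yeast populations carry antibody and antigen on their surface. After mating in shaken culture at 30 °C for 16 h, diploids were selected and their barcode pairs sequenced. The ratio of observed to expected reads was calibrated, replicate by replicate, on BCL2-family standards whose Kd was known from biolayer interferometry. The assay was run in six technical replicates.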

Parent: Ab-14, a human scFv built as VH, a (GGGGS)3 linker, VL. Only the CDRs of the heavy chain vary.
VH: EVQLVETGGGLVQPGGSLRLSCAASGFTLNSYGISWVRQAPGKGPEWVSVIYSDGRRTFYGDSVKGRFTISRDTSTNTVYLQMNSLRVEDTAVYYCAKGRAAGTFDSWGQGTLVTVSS
VL: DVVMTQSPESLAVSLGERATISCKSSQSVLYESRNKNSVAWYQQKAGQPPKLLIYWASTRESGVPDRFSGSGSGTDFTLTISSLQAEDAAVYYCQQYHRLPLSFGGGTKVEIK

Positions count from residue 1 of the parent VH; S53A puts A in place of S. The read-out is the apparent dissociation constant on a log10 scale (nM): the lower, the stronger. An entry "n.d." has no value in the source: the pair was not observed among the diploids in that replicate. This suggests poor binding but is not conclusive. Of ten entries with the parent sequence, four were seen in most replicates (averages 0.34 to 2.37), three in one and three in none, so single entries are noisy. As a blank, each scFv also met three strains without target: over all heavy chain designs, 1% of these pairings were detected, typically at 2.08 and seldom below 0.84. For each scFv, signals with the empty controls are counted beside the result, with their mean in brackets. The authors' rule: three or more of the six replicates give a measured affinity, fewer mean a poor binder. The range of this assay differs from that of the first round, and the authors advise against merging the two.

changes	replicates, log10 nM	signal with controls
S53A/A101L/D106W/S107I	n.d. n.d. n.d. n.d. n.d. n.d.	0/18
T28S/S31Q/G103V/S107Q	n.d. n.d. n.d. n.d. n.d. n.d.	0/18
G26W/S31D/F59A/G61I	n.d. n.d. n.d. n.d. n.d. n.d.	0/18
N30D/G61I/D106V	n.d. n.d. n.d. n.d. n.d. n.d.	0/18
G26K/S31E/A101V	n.d. n.d. n.d. n.d. n.d. n.d.	0/18
N30D/G61A/A101Q/D106H	n.d. n.d. n.d. n.d. n.d. n.d.	0/18
S31D/R56L/G61I	0.71 0.37 0.99 0.49 0.66 0.61	0/18
T28S/S31E/G61C/G103V/S107Q	n.d. n.d. n.d. n.d. n.d. n.d.	0/18
S31E/R56K/F59Q/G61I	0.11 0.67 0.69 0.32 0.12 0.31	0/18
N30E/S53A/S63W	n.d. 1.85 1.03 2.14 n.d. 1.00	2/18 (2.19)
T28D/G61I/S107F	0.71 1.05 0.77 0.95 0.83 0.75	1/18 (2.87)
S31D/G61T/A101M/D106I	n.d. n.d. n.d. n.d. n.d. n.d.	0/18
S31E/G61M/S63D/A101T	0.32 0.56 0.09 -0.52 -0.03 -0.05	0/18
S31D/F59L/G61S	1.45 2.23 1.64 2.89 2.16 n.d.	0/18
S31E/A101E/S107N	n.d. n.d. n.d. n.d. 1.23 n.d.	0/18
F27E/S31E/G103V/S107V	n.d. n.d. n.d. n.d. n.d. n.d.	0/18
N30D/S31Q/G61H	1.40 1.34 0.72 0.62 1.14 1.00	0/18
G61D/R100Q/A101E/S107E	0.90 0.75 1.68 0.93 1.81 1.14	2/18 (2.34)
T28F/S31D/R100N	n.d. 1.35 n.d. 1.05 n.d. 1.69	0/18
S53A/F105N/D106K/S107K	n.d. n.d. n.d. n.d. n.d. n.d.	1/18 (1.59)
T28P/S31E/S53A/R100Y	0.48 -0.06 1.60 0.12 0.01 0.02	0/18
G61I/S63T/R100N	0.89 0.93 n.d. 1.78 1.34 2.20	0/18
T28D/S31L/G61D/R100Q/A101T	0.19 -0.17 -0.17 -0.15 0.09 0.12	1/18 (2.03)
T28D/G61I/A101E/S107M	0.21 -0.07 0.46 -0.93 -0.09 -0.60	0/18
T28S/G61S/A102G/T104K	n.d. n.d. n.d. n.d. n.d. n.d.	0/18
G61S/R100M/A102G/S107N	2.69 2.32 0.74 1.84 n.d. n.d.	0/18
S31E/G61A/S63D/A101T	0.11 -0.13 -0.09 -0.17 -0.32 -0.33	1/18 (2.20)
S31E/G61S/A101E	-0.66 -0.63 -0.90 -1.20 -1.03 -0.88	0/18
G26K/T28Q/S31E/G61T/A101C	n.d. n.d. n.d. n.d. n.d. n.d.	0/18
S31E/G61T/A101F/D106V	n.d. n.d. n.d. n.d. n.d. n.d.	0/18
T28S/S31D/G103L/S107M	n.d. n.d. n.d. n.d. n.d. n.d.	0/18
T28D/A101T/T104H/D106N	n.d. n.d. n.d. n.d. n.d. n.d.	0/18
T28C/S31D/F59A/G61I	1.86 1.07 0.58 0.96 0.70 2.10	0/18
N30D/G61A/D106P	n.d. n.d. n.d. n.d. n.d. n.d.	1/18 (1.81)
T28D/G61D/G103V/S107I	n.d. n.d. n.d. n.d. n.d. n.d.	0/18

Picked from the list: the 6 lowest averages where every replicate gave a value.

changes	replicates, log10 nM	signal with controls
S31E/G61S/A101E	-0.66 -0.63 -0.90 -1.20 -1.03 -0.88	0/18
T28D/G61I/A101E/S107M	0.21 -0.07 0.46 -0.93 -0.09 -0.60	0/18
S31E/G61A/S63D/A101T	0.11 -0.13 -0.09 -0.17 -0.32 -0.33	1/18 (2.20)
T28D/S31L/G61D/R100Q/A101T	0.19 -0.17 -0.17 -0.15 0.09 0.12	1/18 (2.03)
S31E/G61M/S63D/A101T	0.32 0.56 0.09 -0.52 -0.03 -0.05	0/18
T28P/S31E/S53A/R100Y	0.48 -0.06 1.60 0.12 0.01 0.02	0/18